Assay results as given in PubChem BioAssay (NCATS).
The list shows a part of the results, in another mix than the full data. Results filed as inconclusive are left out. Calls of active or inactive are those of the source. Unless noted, calls follow the shape of the dose curve; as a rule, active = well fitted curve in the direction sought with a large enough effect; inconclusive = small, poorly fitted or top-dose-only effect, or another doubt; inactive = no such curve, though single readings can be large; an effect the other way counts as inactive or inconclusive.

The chains behind the UniProt entries cited, without tags or fusion partners. Where a name states a change or a piece, a line headed by the entry shows the natural chain unless it says otherwise.
UniProt P02791: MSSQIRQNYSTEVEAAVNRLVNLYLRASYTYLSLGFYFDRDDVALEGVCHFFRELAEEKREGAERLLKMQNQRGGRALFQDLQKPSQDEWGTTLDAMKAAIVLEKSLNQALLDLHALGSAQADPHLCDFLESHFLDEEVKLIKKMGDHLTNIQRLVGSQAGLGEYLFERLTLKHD
UniProt P46063: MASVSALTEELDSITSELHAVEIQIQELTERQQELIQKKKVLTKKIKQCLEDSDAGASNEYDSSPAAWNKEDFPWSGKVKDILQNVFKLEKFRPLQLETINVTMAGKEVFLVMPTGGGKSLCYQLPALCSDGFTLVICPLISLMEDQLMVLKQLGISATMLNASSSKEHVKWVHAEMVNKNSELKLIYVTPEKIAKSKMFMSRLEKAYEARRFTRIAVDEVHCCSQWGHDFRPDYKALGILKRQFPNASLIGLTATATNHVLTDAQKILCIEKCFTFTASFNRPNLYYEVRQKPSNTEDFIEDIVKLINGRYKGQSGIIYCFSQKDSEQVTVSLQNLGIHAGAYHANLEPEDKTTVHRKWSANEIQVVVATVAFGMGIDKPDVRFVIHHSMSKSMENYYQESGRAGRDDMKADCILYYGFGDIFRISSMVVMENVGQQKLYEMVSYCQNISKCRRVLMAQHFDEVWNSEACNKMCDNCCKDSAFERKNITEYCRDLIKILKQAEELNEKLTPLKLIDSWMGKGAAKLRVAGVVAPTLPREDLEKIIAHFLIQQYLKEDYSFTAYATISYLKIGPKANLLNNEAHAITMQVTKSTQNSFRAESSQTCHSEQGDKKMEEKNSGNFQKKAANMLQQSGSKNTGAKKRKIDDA
UniProt O75604: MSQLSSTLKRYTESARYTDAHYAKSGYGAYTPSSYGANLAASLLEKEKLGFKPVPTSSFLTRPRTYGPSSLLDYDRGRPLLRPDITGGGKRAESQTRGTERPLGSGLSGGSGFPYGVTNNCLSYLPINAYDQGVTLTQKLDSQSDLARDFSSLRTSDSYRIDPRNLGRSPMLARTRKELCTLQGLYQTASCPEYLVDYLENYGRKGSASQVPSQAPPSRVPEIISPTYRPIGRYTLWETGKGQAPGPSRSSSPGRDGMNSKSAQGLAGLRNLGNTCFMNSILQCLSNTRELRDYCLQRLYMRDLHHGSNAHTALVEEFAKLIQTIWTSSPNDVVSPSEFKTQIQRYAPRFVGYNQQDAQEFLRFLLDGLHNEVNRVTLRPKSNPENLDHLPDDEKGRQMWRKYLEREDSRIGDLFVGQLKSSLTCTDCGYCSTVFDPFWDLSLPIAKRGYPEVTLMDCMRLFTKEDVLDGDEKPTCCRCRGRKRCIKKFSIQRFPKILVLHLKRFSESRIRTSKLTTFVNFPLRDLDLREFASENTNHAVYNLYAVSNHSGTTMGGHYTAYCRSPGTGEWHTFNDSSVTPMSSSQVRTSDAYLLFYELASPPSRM
UniProt O89049, whole entry, looked up: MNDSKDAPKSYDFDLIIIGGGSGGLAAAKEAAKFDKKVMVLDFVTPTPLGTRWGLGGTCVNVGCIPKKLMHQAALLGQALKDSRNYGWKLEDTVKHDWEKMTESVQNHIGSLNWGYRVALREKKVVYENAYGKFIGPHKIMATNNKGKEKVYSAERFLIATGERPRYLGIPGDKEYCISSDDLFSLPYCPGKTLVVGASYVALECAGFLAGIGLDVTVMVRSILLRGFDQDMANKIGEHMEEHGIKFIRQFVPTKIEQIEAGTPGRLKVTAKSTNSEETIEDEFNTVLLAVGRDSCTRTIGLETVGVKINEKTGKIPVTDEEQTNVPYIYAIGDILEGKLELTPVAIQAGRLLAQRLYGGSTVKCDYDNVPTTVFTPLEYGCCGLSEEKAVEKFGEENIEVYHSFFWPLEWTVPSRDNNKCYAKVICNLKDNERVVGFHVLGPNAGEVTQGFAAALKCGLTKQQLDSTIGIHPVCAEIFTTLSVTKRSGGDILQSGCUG
UniProt P39748, whole entry, looked up: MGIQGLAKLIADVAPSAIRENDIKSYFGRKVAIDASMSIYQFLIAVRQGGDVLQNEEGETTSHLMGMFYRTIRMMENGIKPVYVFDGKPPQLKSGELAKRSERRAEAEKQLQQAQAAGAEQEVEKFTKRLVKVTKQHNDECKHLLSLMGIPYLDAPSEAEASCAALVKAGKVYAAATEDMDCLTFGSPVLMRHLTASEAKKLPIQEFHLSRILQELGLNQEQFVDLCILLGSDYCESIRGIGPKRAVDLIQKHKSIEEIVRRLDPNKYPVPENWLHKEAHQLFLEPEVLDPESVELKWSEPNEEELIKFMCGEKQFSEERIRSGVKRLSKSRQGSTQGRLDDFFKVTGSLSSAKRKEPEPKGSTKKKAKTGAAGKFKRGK
UniProt Q99549: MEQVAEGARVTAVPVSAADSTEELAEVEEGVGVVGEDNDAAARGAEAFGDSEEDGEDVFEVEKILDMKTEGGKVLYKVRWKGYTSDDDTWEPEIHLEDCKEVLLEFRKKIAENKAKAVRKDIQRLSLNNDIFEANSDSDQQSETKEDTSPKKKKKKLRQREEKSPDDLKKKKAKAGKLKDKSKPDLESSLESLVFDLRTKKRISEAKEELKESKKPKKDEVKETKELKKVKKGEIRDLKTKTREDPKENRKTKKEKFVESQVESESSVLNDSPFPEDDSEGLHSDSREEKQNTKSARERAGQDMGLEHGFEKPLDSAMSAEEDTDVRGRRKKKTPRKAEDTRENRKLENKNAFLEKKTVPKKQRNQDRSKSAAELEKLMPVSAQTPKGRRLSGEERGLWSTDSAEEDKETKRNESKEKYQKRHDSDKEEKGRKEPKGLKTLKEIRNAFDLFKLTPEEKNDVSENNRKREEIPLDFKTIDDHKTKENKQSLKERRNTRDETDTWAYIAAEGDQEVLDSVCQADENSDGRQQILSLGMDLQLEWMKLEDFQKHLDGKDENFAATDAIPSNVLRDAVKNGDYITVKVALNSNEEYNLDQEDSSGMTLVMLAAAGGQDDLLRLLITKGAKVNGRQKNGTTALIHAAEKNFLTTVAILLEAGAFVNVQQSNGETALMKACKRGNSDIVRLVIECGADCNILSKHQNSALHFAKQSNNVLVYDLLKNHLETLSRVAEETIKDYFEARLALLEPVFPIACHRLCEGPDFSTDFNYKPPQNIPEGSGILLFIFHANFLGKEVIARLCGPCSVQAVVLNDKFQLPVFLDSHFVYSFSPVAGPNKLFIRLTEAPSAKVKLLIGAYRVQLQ
UniProt P83916, whole entry, looked up: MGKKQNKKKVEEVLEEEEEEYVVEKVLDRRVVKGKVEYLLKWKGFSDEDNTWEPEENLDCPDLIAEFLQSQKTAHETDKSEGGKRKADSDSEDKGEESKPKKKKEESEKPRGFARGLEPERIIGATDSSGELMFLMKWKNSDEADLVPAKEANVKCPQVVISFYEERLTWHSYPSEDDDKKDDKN
UniProt Q6LX38: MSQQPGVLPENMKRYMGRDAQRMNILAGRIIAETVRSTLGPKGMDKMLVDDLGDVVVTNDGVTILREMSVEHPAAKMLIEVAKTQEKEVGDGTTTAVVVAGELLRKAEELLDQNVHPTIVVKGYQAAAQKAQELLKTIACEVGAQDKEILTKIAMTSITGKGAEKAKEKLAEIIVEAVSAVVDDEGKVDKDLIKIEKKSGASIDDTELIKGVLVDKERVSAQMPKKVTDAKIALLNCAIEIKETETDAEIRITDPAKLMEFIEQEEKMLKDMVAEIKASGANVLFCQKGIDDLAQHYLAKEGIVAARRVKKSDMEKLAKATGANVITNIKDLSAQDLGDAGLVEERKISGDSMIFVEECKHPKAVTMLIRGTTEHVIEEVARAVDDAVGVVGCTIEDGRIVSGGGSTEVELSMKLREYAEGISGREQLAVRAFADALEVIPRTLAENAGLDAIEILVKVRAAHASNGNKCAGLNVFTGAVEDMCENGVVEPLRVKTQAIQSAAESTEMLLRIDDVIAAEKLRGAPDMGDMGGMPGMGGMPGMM
UniProt P21728, whole entry, looked up: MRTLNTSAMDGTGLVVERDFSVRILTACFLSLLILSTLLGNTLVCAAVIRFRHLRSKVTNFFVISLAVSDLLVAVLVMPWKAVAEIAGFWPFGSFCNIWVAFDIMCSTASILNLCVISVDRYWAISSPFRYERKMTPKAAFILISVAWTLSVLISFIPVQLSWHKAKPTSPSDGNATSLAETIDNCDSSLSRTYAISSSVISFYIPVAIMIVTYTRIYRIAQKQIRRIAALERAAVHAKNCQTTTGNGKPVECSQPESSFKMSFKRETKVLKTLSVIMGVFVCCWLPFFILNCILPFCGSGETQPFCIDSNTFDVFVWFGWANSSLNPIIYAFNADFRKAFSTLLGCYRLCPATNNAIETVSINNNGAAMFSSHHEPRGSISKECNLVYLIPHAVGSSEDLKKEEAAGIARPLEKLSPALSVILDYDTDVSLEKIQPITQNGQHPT
UniProt Q96QE3: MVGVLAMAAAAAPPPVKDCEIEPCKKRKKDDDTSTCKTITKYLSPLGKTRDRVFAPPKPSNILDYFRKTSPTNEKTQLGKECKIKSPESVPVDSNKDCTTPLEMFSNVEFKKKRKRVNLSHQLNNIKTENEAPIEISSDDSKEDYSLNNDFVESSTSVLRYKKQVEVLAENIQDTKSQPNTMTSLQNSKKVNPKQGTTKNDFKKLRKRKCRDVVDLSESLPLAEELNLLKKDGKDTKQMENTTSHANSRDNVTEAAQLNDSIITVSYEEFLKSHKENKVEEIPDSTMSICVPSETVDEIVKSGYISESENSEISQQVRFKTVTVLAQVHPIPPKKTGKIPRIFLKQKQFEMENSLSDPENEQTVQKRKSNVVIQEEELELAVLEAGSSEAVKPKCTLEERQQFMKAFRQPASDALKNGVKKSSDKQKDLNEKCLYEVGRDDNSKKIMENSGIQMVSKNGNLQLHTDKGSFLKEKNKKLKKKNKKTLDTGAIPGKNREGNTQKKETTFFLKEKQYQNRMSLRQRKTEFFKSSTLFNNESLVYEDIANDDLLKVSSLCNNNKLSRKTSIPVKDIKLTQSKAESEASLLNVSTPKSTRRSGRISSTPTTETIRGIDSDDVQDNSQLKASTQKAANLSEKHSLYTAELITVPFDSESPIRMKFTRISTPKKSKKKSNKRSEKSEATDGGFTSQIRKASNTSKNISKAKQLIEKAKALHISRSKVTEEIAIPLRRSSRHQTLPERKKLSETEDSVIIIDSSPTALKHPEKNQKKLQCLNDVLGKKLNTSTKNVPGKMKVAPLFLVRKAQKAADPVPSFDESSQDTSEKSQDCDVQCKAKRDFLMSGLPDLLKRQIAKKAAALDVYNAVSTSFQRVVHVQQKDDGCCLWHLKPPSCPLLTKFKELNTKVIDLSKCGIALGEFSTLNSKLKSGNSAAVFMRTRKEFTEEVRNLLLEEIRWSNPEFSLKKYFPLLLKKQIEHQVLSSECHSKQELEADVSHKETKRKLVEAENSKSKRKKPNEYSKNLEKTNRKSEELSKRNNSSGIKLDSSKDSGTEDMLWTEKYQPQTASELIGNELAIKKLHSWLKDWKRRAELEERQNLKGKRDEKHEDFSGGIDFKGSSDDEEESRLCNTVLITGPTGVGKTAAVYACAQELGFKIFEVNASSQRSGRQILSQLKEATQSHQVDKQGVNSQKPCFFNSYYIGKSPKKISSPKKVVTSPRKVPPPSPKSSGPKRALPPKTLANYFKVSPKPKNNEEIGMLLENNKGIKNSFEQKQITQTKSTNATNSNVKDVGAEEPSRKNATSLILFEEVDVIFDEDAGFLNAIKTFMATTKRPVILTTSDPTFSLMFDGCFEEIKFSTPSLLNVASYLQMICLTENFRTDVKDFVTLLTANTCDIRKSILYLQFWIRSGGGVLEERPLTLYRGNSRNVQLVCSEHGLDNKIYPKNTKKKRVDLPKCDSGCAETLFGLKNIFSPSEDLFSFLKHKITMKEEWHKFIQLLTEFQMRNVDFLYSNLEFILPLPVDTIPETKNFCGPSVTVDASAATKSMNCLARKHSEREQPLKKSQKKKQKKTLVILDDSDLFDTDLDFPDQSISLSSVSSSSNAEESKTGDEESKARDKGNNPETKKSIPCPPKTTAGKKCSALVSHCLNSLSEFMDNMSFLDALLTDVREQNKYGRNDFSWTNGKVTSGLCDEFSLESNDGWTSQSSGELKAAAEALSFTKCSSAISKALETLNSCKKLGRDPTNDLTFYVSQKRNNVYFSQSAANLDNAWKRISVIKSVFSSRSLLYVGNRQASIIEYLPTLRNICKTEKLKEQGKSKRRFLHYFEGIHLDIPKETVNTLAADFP
UniProt Q13526, whole entry, looked up: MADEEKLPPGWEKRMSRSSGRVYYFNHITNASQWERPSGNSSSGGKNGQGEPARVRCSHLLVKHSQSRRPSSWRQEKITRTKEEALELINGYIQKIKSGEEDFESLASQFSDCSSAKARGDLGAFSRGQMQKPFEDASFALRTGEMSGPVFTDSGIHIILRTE

What was measured:
[1] = Validation of Assay for Modulators of Lamin A Splicing (AID 1459; active = well fitted curve in the direction sought with a large enough effect in the signal ratio; the % refers to the signal ratio;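 also: cells exposed to compound for two days before reading; 0% is about no effect; ratio rise marks activators and ratio drop marks inhibitors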); conditions: Lamin A splicing dual RFP/GFP fluorescence reporter; at 9.22 µM (top of the series)
How it was run: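 HeLa S3 lamin A-EGFP/DsRed2 stable clone, 600 cells/well, Opti-MEM 2% FBS; compounds by pin tool; 48 hrs, 37 °C/5% CO2; Acumen 488 nm scan, objects 10-100 um; GFP/RFP intensity ratio.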

[2] = Counterscreen for APE1 Inhibitors: Fluorescent Dye Displacement Validation Assay (AID 1707); conditions: fluorescent dye displacement from DNA; at 57.1 µM (top of the series);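 also: plate controls were ThO with dsDNA and no compound for no effect and ThO without dsDNA for full effect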
How it was run: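 Assay buffer: Tris-HCl pH7.5 with 50mM NaCl, 2 mM MgCl2, 0.01% Tween-20. Dye 250 nM, duplex 50 nM final. Readout: decrease in ThO endpoint fluorescence, 480 nm excitation, 540 nm emission.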

[3] = target: Ferritin light chain (Equus caballus) (UniProt P02791); assay: qHTS Validation Assay for Identification of Novel General Anesthetics (AID 2323); conditions: horse apoferritin, anesthetic-site fluorescent probe displacement; at 76.9 µM (top of the series); also: % is scaled to controls: 0 for no effect and ±100 for the full control effect
How it was run: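 Fluorescence at 535 nm (excitation 380 nm) reported loss of 1-AMA binding to horse-spleen apoferritin (10 uM) in PBS with 50% saturated 1-aminoanthracene, after 10 min room-temperature incubation with compound; values from Hill fits of normalized response.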

[4] = target: ATP-dependent DNA helicase Q1 (Homo sapiens) (UniProt P46063); assay: qHTS Validation Assay for Inhibitors of RecQ-Like Dna Helicase 1 (RECQ1) (AID 2353); conditions: recombinant RECQ1 helicase DNA unwinding assay; at 25.6 µM (top of the series);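 also: plate controls were DMSO vehicle for no effect and enzyme-free control for full effect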
How it was run: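 50 nM RECQ1T1 preincubated 15 min with compound in Tris pH 8.0 buffer with MgCl2, DTT, Tween-20 and 2.5 ug/ml poly(dI-dC); started with 200 nM TAMRA/BHQ-2 forked duplex and 2 mM ATP. Unwinding read as fluorescence (525/598 nm), two reads 2 h apart.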

[5] = Cytometric Cell-Based qHTS for Inhibitors of the mTORC1 Signaling Pathway in MEF (Tsc2-/-, p53-/-) Cells (AID 2660); conditions: mTORC1 pathway cytometry; at 38.3 µM (top of the series);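 also: Tsc2 and p53 null MEFs carrying empty vector with compound for 24 h; percent of cells above a phospho-rpS6 to PI ratio cutoff in each well; plate controls were DMSO for no effect and rapamycin for full effect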
How it was run: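 Cells are plated, treated with compound for 24 hrs at 37 degree Celsius, then fixed, blocked and immunostained for phospho-rpS6 Ser235/236. Propidium iodide counterstain follows. Per-well % positive cells is derived from the PI-normalized phospho-S6 signal.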

[6] = High Content Imaging Cell-Based qHTS for Inhibitors of the mTORC1 Signaling Pathway in MEF (Tsc2-/-, p53-/-) Cells (AID 2666); conditions: at 38.3 µM (top of the series);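 also: percent of cells scored positive for phospho-rpS6 Ser235/236 immunostaining by imaging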
How it was run: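 Cells were plated, dosed with compound after 24 hrs, and incubated another 24 hrs at 37 degree Celsius. Fixed cells were immunostained for phospho-rpS6 Ser235/236 and counterstained, and the normalized signal was scored as % active cells against rapamycin and DMSO controls.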

[7] = High Content Imaging Cell-Based qHTS for Inhibitors of the mTORC1 Signaling Pathway in MEF Cells (AID 2667); conditions: at 38.3 µM (top of the series);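 also: Tsc2-/- p53-/- MEFs stably re-expressing wild-type Tsc2 exposed 24 h; plate controls were DMSO wells for no effect and rapamycin control wells for full effect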
How it was run: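 Immunofluorescence for rpS6 phosphorylation in MEFs of Tsc2-/-, p53-/- background rescued with WT Tsc2. Compound exposure lasted 24 hrs. Inhibition was scored against rapamycin-treated control wells.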

[8] = Cytometry Cell-Based qHTS for Inhibitors of the mTORC1 Signaling Pathway in MEF cells (AID 2668); conditions: mTORC1 pathway readout; at 38.3 µM (top of the series);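 also: Tsc2-/- p53-/- mouse embryonic fibroblasts stably re-expressing wild-type Tsc2; percent cells positive for phospho-rpS6 Ser235/236 relative to propidium iodide stain; plate controls were DMSO wells for no effect and 7.5 nM rapamycin control wells for full effect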
How it was run: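 Tsc2-/-, p53-/- MEFs re-expressing WT Tsc2; cpd 24 hrs, 37 degree Celsius; PFA fix, Alexa-488 p-rpS6 (Ser235/236) Ab 2 hrs RT, PI counterstain; Acumen 488nm scan; p-S6/PI ratio → % positive cells; PI count = viability.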

[9] = Validation screen for small molecules that induce DNA re-replication in MCF 10A normal breast cells (AID 463097); conditions: MCF 10A cells, DNA re-replication phenotype imaging; at 46.1 µM (top of the series); also: 0% is about no effect; nearly all actives have a fitted effect of over 60% in size
How it was run: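 Image-based qHTS: normal breast cells are incubated with compound for 48 hr, stained with Hoechst, and scanned for total nuclear fluorescence. Compounds raising the fraction of nuclei with elevated DNA content count as re-replication inducers.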

[10] = target: Ubiquitin carboxyl-terminal hydrolase 2 (Homo sapiens) (UniProt O75604); assay: qHTS Validation Assay for Inhibitors of Ubiquitin-specific Protease USP2a Using CHOP2 as the Reporter (AID 463106); conditions: USP2a cleavage of CHOP2 reporter, enzymatic; at 38.3 µM (top of the series);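 also: plate controls were DMSO for no effect and full inhibition by NEM for full effect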
How it was run: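 10nM USP2 core + cpd, 30min RT; add 25nM Ub-CHOP2/25nM substrate; 60min RT; FI 485/531nm. Buffer Tris pH 8.0, CaCl2, BME, CHAPS. Norm. to NEM = 100% inhibition; time-zero read flags fluorescent artifacts.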

[11] = qHTS Validation Assay to Find Inhibitors of Chronic Active B-Cell Receptor Signaling (AID 485345; active = well fitted curve in the direction sought with a large enough effect in the main read-out, with a control signal flat, not every such curve was filed as active;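 also: 0% = untreated basal cells and 100% = 10 µM MG-132 proteasome inhibitor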); conditions: ABC-DLBCL cells, chronic BCR signaling reporter, CBG luciferase; at 46.1 µM (top of the series)
How it was run: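 Read-out: ratio of filter-corrected green (IkappaBalpha fusion) to red (native) luciferase signal in doxycycline-induced TMD8 cells after 4 h at 37C. Titration spanned 46 uM–3 nM; Data were normalised to basal cells and 10 uM MG-132 wells.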

[12] = target: Beta-2 adrenergic receptor (Homo sapiens) (UniProt P07550); assay: qHTS validation assay of beta-arrestin-biased ligands of beta2-adrenergic receptor (AID 485366); conditions: cell-based beta-arrestin recruitment to ADRB2, qHTS; at 46.1 µM (top of the series); also: 0% is about no effect
How it was run: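 Values derive from curve-fitted %Activity of a luminescent beta-arrestin recruitment reporter; compounds tested up to 46 microM on Tango cells for 18 hr at 37 degrees C, 5% CO2.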

[13] = target: Thioredoxin reductase 1, cytoplasmic (Rattus norvegicus) (UniProt O89049); assay: qHTS Assay for Substrates of Mammalian Selenoprotein Thioredoxin Reductase 1 (TrxR1) (AID 488772); conditions: purified TrxR1, NADPH consumption substrate assay; at 57.1 µM (top of the series);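 also: NADPH fluorescence in the first read after selenite addition and not the 8 min delta; 0% is about no effect; a drop in NADPH fluorescence below the no-compound background marks a TrxR1 substrate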
How it was run: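 Quantitative HTS in Tris-HCl buffer at pH 7.5 with EDTA and Tween-20, using rat TrxR1, 400 uM NADPH and 400 uM selenite (final). A fall in initial NADPH fluorescence relative to background marked substrate behaviour.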

[14] = target: Thioredoxin reductase 1, cytoplasmic (Rattus norvegicus) (UniProt O89049); assay: qHTS Assay for Inhibitors of Mammalian Selenoprotein Thioredoxin Reductase 1 (TrxR1) (AID 488773); conditions: purified TrxR1 enzyme activity; at 57.1 µM (top of the series);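 also: drop in NADPH fluorescence over an 8 min run after selenite addition; % is scaled to controls: 0 for no effect and ±100 for the full control effect; nearly all actives have a fitted effect of over 40% in size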
How it was run: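 Steps: enzyme (90 nM) plus NADPH (400 uM final), 5 min at ~22 deg C; compound added, 15 min; selenite (400 uM final) added; fluorescence followed for 8 min. Concentration-response curves derived from the normalized delta values.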

[15] = target: Flap endonuclease 1 (Homo sapiens) (UniProt P39748); assay: qHTS Validation Assay for the Inhibitors of Human Flap endonuclease 1 (FEN1) (AID 488816); conditions: FEN1 nuclease activity, fluorogenic DNA substrate; at 57.1 µM (top of the series); also: % is scaled to controls: 0 for no effect and ±100 for the full control effect
How it was run: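 Readings taken at 0 and 15 min after starting the reaction with 50 nM (final) substrate supplied the signal. Compounds had first sat with 10 nM FEN1 reagent for 15 min at room temperature. Values come from Hill-equation concentration-response fits.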

[16] = target: M-phase phosphoprotein 8 (Homo sapiens) (UniProt Q99549); assay: qHTS Validation Assay for Inhibitors for MPP8 Chromodomain Interactions with Methylated Histone Tails (AID 488949); conditions: AlphaScreen MPP8 binding to H3K9me3 peptide;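 also: 50 nM MPP8 with 50 nM peptide preformed then compounds added for 30 min; AlphaScreen signal from MPP8 chromodomain bound to biotinylated H3K9me3 peptide; top concentration of the series differs between compounds; % is scaled to controls: 0 for no effect and ±100 for the full control effect; nearly all actives have a fitted effect of over 55% in size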
How it was run: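 50 nM MPP8 + 50 nM b-H3K9me3 peptide, PBS pH 7.4/0.01% Tween-20, 30 min RT; + cpd 30 min RT; + AlphaScreen donor/Ni-chelate acceptor beads 10 ug/mL final, 30 min dark; luminescence read.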

[17] = target: Chromobox protein homolog 1 (Homo sapiens) (UniProt P83916); assay: qHTS Validation Assay for Inhibitors of HP1-beta Chromodomain Interactions with Methylated Histone Tails (AID 488953); conditions: HP1-beta chromodomain / methylated histone peptide binding assay; at 114 µM (top of the series);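 also: loss of AlphaScreen luminescence from HP1-beta binding biotinylated H3K9me3 peptide; % is scaled to controls: 0 for no effect and ±100 for the full control effect; nearly all actives have a fitted effect of over 50% in size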
[18] = target: Methanococcus maripaludis chaperonin (MmCpn) (UniProt Q6LX38); assay: High-Throughput Screening for Modulators of Cytosolic Chaperonin Activity: MmCpn Primary Screen (AID 488978); conditions: MmCpn chaperonin refolding activity, biochemical qHTS; at 76.9 µM (top of the series);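 also: 50 nM MmCpn enzyme hydrolysing 30 µM ATP at 37 °C; 0% is about no effect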
How it was run: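 Steps: chaperonin 50 nM final; add compound, 5 min RT; start with ATP, 30 uM final; hold 10 min at 37C; add ADP Transcreener HTRF reagent, 5 min; read ex 320, em 590 and 665 nm.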

[19] = target: D(1A) dopamine receptor (Homo sapiens) (UniProt P21728); assay: HTS Assay for Allosteric Agonists of the Human D1 Dopamine Receptor: Primary Screen for Agonists (AID 488981); conditions: D1 receptor-expressing cells, agonist cAMP readout; at 41.8 µM (top of the series); also: 0% is about no effect
How it was run: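 Calcium flux in an inducible, force-coupled HEK293 Trex D1 line (overnight at 30 C): agonist mode is the 180 s kinetic read after compound; potentiator mode is the following 180 s read after dopamine at EC20.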

[20] = target: D(1A) dopamine receptor (Homo sapiens) (UniProt P21728); assay: HTS Assay for Allosteric Agonists of the Human D1 Dopamine Receptor: Primary Screen for Potentiators (AID 488982); conditions: D1 receptor cells, potentiator mode, cAMP signal; at 8.37 µM (top of the series); also: 0% is about no effect
[21] = target: D(1A) dopamine receptor (Homo sapiens) (UniProt P21728); assay: HTS Assay for Allosteric Agonists of the Human D1 Dopamine Receptor: Primary Screen for Antagonists (AID 488983); conditions: D1 receptor cell assay, antagonist mode, qHTS titration; at 41.8 µM (top of the series);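 also: calcium flux response to an EC80 dopamine challenge measured with no-wash dye; % is scaled to controls: 0 for no effect and ±100 for the full control effect; nearly all actives have a fitted effect of over 65% in size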
[22] = Validation screen for small molecules that induce genotoxicity in human embryonic kidney (HEK293T) cells expressing luciferase-tagged ELG1 (AID 493106); conditions: luminescence; at 46.1 µM (top of the series); also: 0% is about no effect
How it was run: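 HEK293T cells expressing luciferase-tagged ELG1, 2,000 cells/well, exposed to compound 16 hr at 37 °C, 5% CO2. Luciferase read after ONE-Glo, 30 min at room temperature; increased signal indicates genetic stress.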

[23] = target: ATPase family AAA domain-containing protein 5 (Homo sapiens) (UniProt Q96QE3); assay: Validation screen for small molecules that inhibit ELG1-dependent DNA repair in human embryonic kidney (HEK293T) cells expressing luciferase-tagged ELG1 (AID 493107); conditions: HEK293T ELG1-luciferase level, luminescence, 5-fluorouridine co-treatment, 16 h; at 46.1 µM (top of the series);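 also: cells co-treated with the DNA-damaging agent 5-fluorouridine alongside compound; % is scaled to controls: 0 for no effect and ±100 for the full control effect; inhibitors lower the ELG1-luciferase luminescence signal; nearly all actives have a fitted effect of over 70% in size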
How it was run: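 HEK293T cells expressing luciferase-tagged ELG1, 2,000 per well, treated with 5-fluorouridine plus compound for 16 h at 37 C. ONE-Glo luminescence after 30 min at room temperature reports ELG1 reporter level.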

[24] = target: Thyrotropin-releasing hormone receptor (Homo sapiens) (UniProt P34981); assay: qHTS for Small Molecule Agonists and Allosteric Enhancers of Human TRH Receptor: Validation Screen for Agonists (AID 493127;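 active = calcium activation more than 3 SD above the typical response in the agonist read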; also: 0% is about no effect); conditions: TRH receptor agonist cell assay; at 2 µM; active compounds read high
How it was run: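 TRHR cells loaded with fluo-8 calcium dye; FDSS kinetic fluorescence (Ex 480/Em 530) read at 1 s/cycle after 23 nL compound addition. Agonist-mode calcium response recorded before the 10 nM TRH (EC20) addition.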

[25] = Nrf2 qHTS screen for inhibitors: Validation (AID 493153; active = well fitted inhibition curve with a large enough effect in the main read-out, with a control signal flat, not every such curve was filed as active;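 also: A549 cells with ARE-driven firefly luciferase reporter reporting Nrf2 activity; % of control where 0% means no effect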); conditions: A549 ARE-Fluc reporter, luciferase luminescence, 18-24 h; at 46.1 µM (top of the series)
[26] = qHTS for Inhibitors of Cell Surface uPA Generation: Validation Assay (AID 493164); conditions: mouse cells, plasminogen activation; at 38.3 µM (top of the series); also: 0% is about no effect
How it was run: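 RAW 264.7 cells (4000/well) were plated overnight, then exposed for 18 h at 37 C, 5% CO2 to compounds in a 7-point 1:5 titration (2.45 nM–38.3 uM final). Intracellular ATP was read by ATP-Lite luminescence.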

[27] = Validation screen for small molecules that induce DNA re-replication in SW480 colon adenocarcinoma cells (AID 504364); conditions: DNA re-replication phenotype (high-content imaging); at 46.1 µM (top of the series); also: 0% is about no effect
How it was run: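 SW480 cells (250/well) exposed 48 h at 37 C, 5% CO2, then Hoechst-stained 40 min. Nuclear DNA content imaged by fluorescence scanning (405 nm excitation, 500-530 nm emission); re-replication scored as increased nuclei with elevated intensity.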

[28] = target: Peptidyl-prolyl cis-trans isomerase NIMA-interacting 1 (Homo sapiens) (UniProt Q13526); assay: qHTS Validation Assay to Find Inhibitors of Pin1 (AID 504536; active = well fitted inhibition curve with a large enough effect in the polarisation, with a control signal flat, not every such curve was filed as active; the % refers to the polarisation;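 also: 0% = full Pin1 enzyme wells and -100% = no-enzyme wells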); conditions: Pin1 fluorescence polarization peptide binding assay; at 57.5 µM (top of the series)
How it was run: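 Fluorescence polarization competition: compounds (titration) displace HiFluor-488-labeled Pin1-1b peptide from Pin1 (0.3 uM final) in pH 7.5 HEPES buffer with DTT, 10 min at room temperature; %Activity normalized to no-enzyme wells, curves fitted.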

CN(C(=O)Cc1ccc(Cl)c(Cl)c1)[C@@H]1CCCC[C@@H]1N1CCCC1
inactive: ratio change, both ways [1] -8.08% | activity change, negative = inhibition [2] 0.312% | activity change, negative = inhibition [3] -10.6% | activity change, negative = inhibition [4] -1.8% | activity change, negative = inhibition [5] 8.37% | outcome [6] | activity change, negative = inhibition [7] -100% | activity change, negative = inhibition [8] -9.51% | re-replication induction [9] 2.41% | activity, negative = inhibition [10] 0.766% | activity change [11] -25.4% | activation [12] -0.386% | activity change, negative = NADPH consumption [13] -6.49% | activity change, negative = inhibition [14] -7.91% | activity, negative = inhibition [15] -11.2% | activity change, negative = inhibition ([16]; at 57.1 µM (top of the series)) 12.5% | activity change, negative = inhibition ([16]; at 114 µM (top of the series)) 10.3% | activity change, negative = inhibition [17] -9.55% | activity change, negative = inhibition [18] -0.0649% | activation [19] 9.84% | activity, positive = potentiation [20] 5.1% | activity change, negative = inhibition [21] 7.41% | activity change, positive = ELG1 induction [22] -7.43% | activity change, negative = decrease [23] -0.181% | activation [24] 1.81% | activity change, negative = inhibition [25] -12.1% | activity change [26] -0.837% | activity (re-replication induction) [27] 13.6% | activity, negative = inhibition [28] 43.2%
